Data published in patent publication US8653075B2, “Therapeutic methods employing substituted piperidines which are CCR3 antagonists” (Boehringer Ingelheim International GmbH, priority 2009, dated 2014).

The chains behind the UniProt entries cited, without tags or fusion partners.
UniProt P51677, whole entry: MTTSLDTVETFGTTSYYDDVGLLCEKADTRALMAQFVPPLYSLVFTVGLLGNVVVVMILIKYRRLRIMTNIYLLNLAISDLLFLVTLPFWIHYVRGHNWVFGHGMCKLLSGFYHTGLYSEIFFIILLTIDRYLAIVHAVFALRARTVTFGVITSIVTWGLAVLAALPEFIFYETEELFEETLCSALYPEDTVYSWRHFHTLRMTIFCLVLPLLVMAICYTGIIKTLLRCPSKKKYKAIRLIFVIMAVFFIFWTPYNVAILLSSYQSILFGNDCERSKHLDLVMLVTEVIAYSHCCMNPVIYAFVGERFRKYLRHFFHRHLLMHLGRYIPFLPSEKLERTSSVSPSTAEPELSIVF

Target: human chemokine receptor CCR3 (Homo sapiens, UniProt P51677)
Test: CCR3 receptor binding assay (SPA, 125I-eotaxin-1 displacement, hCCR3-C1 K562 cell membranes)
Settings: human Eotaxin-1 at human CCR3-Rezeptor; for CCR3 % inh @ 1 μM: 1 μM test compound; for Ki: read-out: CCR3 Ki, dose range 0.1 to 10000 nM

Cc1cc(CN2C3CCC2CC(N2C(=O)CC[C@@H]2C(=O)Nc2cccc(C(=O)N(C)C)c2)C3)ccc1Cl (stereo partly shown)
CCR3 % inh @ 1 μM: 87%
Ki: 153 nM

Cc1cc(CN2C3CCC2CC(N2C(=O)CC[C@@H]2C(=O)Nc2ccccc2)C3)ccc1Cl (stereo partly shown)
CCR3 % inh @ 1 μM: 81%
Ki: 223 nM

Cc1cc(CN2CCC(N3C(=O)CC[C@@H]3C(=O)Nc3cc(C(=O)N4CCOCC4)cc(-c4nnnn4C)c3)CC2)ccc1Cl
CCR3 % inh @ 1 μM: 99%
Ki: 4 nM

CCCc1nc(NC(=O)[C@H]2CCC(=O)N2C2CCN(Cc3ccc(Cl)c(C)c3)CC2)sc1C(=O)N(C)C
CCR3 % inh @ 1 μM: 100%
Ki: 5 nM

Cc1cc(C(=O)N(C)C)cc(NC(=O)[C@H]2CCC(=O)N2C2CCN(Cc3ccc(Br)c(C)c3)CC2)n1
CCR3 % inh @ 1 μM: 99%
Ki: 6 nM
